IC50 data for one molecule are collected here from patent publication US6555547B1, “Method for treating a patient with neoplasia by treatment with a vinca alkaloid derivative” (Cell Pathways, Inc., priority 2000, dated 2003).

Amino acid sequences for entries named in this document (tags omitted).
UniProt O00408, whole entry: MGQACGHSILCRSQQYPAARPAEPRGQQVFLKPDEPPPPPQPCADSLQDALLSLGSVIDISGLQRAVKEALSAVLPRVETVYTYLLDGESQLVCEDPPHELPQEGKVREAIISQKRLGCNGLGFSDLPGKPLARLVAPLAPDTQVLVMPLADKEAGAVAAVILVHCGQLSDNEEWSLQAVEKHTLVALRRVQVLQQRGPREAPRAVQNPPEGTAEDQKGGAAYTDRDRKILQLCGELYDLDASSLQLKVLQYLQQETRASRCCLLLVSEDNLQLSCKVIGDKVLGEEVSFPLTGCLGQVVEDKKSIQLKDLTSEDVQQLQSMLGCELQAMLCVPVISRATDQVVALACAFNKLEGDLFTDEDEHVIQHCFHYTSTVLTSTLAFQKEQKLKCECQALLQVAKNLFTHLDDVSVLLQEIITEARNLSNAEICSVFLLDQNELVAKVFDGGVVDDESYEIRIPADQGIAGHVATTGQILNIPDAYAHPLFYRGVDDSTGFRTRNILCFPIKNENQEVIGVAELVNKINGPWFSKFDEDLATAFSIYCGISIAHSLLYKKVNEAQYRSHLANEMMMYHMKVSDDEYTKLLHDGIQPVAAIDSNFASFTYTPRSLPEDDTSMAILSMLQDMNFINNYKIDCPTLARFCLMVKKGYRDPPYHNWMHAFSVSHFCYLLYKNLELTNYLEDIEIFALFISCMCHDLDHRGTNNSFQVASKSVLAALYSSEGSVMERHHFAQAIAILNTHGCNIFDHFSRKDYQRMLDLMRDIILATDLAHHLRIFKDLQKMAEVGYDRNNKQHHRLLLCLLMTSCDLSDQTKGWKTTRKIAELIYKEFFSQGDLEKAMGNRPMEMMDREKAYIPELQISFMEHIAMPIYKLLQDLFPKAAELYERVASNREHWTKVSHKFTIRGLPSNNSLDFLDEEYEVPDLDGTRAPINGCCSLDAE

The target of the experiment is T1, novel cGMP-specific PDE Peak B (Section IIB) from SW480 cells (Homo sapiens, UniProt O00408).
T1 construct: IC50 Peak B (μM); native enzyme
The experiment in a line: Inhibition of cGMP hydrolysis by novel PDE Peak B from SW480. The class given is biochemical.

Molecule `CCCc1nn(C)c2c(=O)[nH]c(-c3cc(S(=O)(=O)N4CCN(C)CC4)ccc3OCC)nc12` [Sildenafil, sildenafil] yielded a half-inhibitory concentration (IC50) greater than 10 µM.
